Bioassay records deposited in PubChem BioAssay by National Center for Advancing Translational Sciences (NCATS).
miR-21 reporter = raises the signal of a miR-21 reporter | HeLa miR-21 FLuc reporter, luciferase, 48 h | Potency, µM (highest dose often 38.3 µM) | 340,000 tested, under 10 active | AID 2288; active = well fitted rising curve with a large enough effect; inconclusive = small, poorly fitted or top-dose-only effect; inactive = no such curve, though single readings can be large or run the other way;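 note: miR-21 action dims this reporter so a rising signal means less miR-21 action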
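Using DMEM plus 10% FBS, HeLa miR-21-FLuc cells are incubated with test compounds (final up to about 40uM) for 48 hours; firefly luciferase signal is then imaged following reagent-mediated lysis.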
PKM2 activator = activators of human pyruvate kinase M2; P14618; purified PKM2, Kinase-Glo ATP luminescence, activation; response scale: 0% is enzyme alone, no compound; Potency, µM (doses to about 57.5 µM), hits mostly activators; 260,000 tested, 0.34% active; further: nearly all actives have a fitted effect of over 55% in size
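Kinase-Glo luminescence reports ATP generated from ADP (0.1 mM) and PEP (0.5 mM) by purified hPK-M2 after 1 h at room temperature, pH 7.2 imidazole buffer; intermediate enzyme activity allows detecting inhibitors and activators.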
PINK1 modulator = modulators of PINK1 expression | PINK1 immunofluorescence, high-content cytometry, 24 h | Potency, µM (series often up to 76.6 µM), actives largely listed as activators | AID 624263 | 410,000 tested, 0.2% active; active means well fitted activation curve with a large enough effect; inconclusive means small, poorly fitted or top-dose-only effect; cell line not stated here; further: nearly all actives have a fitted effect of over 65% in size
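Stable cell line, 250 cells/well, 12 h attachment; compounds pinned at 5 concentrations, 24 h; CCCP control. Fixed with nuclear dye, primary antibodies 12 h at 10 degrees C, secondary plus cell stain; laser-scanning cytometer read.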
B2AR arrestin = agonists driving beta-arrestin recruitment to human beta2-adrenergic receptor. AID 492947. Potency, µM (top dose mostly 46.1 µM), most hits filed as activators. 330,000 tested, 0.02% active. P07550. beta-arrestin recruitment to beta2AR, cell-based reporter; further: nearly all actives have a fitted effect of over 65% in size
Pin1 inhibitor = blocks the human prolyl isomerase Pin1 | Q13526 | Pin1 FP peptide displacement, HiFluor488, 10 min | Potency, µM (highest dose often 115 µM), most hits filed as inhibitors | 390,000 tested, 0.009% active; active means well fitted inhibition curve with a large enough effect in the polarisation, with a control signal flat, not every such curve was filed as active; inconclusive means small, poorly fitted or top-dose-only effect, or effect the other way, or a change in a side signal; inactive means no such curve, though single readings can be large or run the other way; the % refers to the polarisation
Chronic BCR inh = inhibitors of chronic active B-cell receptor signaling; ABC-DLBCL IkBa-CBG/CBR reporter, luminescence ratio, 4 h; Potency, µM (titrated, usually from 46.1 µM), actives largely listed as inhibitors; 340,000 tested, 0.05% active; AID 493014; active means well fitted inhibition curve with a large enough effect in the signal ratio, with a control signal flat, not every such curve was filed as active; inconclusive means small, poorly fitted or top-dose-only effect, or effect the other way, or a change in a side signal; the % refers to the signal ratio
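Cell line TMD8 (human ABC DLBCL), stably expressing tet-inducible CBG68-IkBa fusion and CBR; IMDM/0.5% FBS; cpd up to 46 uM; dox induction, 4 h, 37C/5% CO2; dual luminescence; green/red ratio; MG132 control.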
HeLa viability = counter-screen for pyruvate kinase M2 activators: HeLa cytotoxicity; 230 tested, under 10 active; HeLa viability, CellTiter-Glo ATP luminescence, 24 h; activity change, negative = cytotoxicity, % at 57.5 µM; AID 1898; shares compounds with PKM2 activator
Hits are given with their value; i = inactive; ? = inconclusive; nt = not tested or not shown. This is a sample that favours compounds with a hit; in the whole collection about 0.46% have one here. Unless noted, the call rests on the fitted dose curve; in most records, active means well fitted curve in the direction sought with a large enough effect; inconclusive means small, poorly fitted or top-dose-only effect, or another doubt; inactive means no such curve, though single readings can be large; an effect the other way counts as inactive or inconclusive.

SMILES	miR-21 reporter	PKM2 activator	PINK1 modulator	B2AR arrestin	Pin1 inhibitor	Chronic BCR inh	HeLa viability
Cc1cc(C)n2nc(SCc3cc(=O)oc4cc(C)c(C)cc34)nc2n1	i	i	nt	i	nt	i	nt
Cc1cccc(NS(=O)(=O)c2cc3c(cc2C)NC(=O)CO3)c1	i	0.71µM	i	i	i	i	i
Cc1cc2c(cc1S(=O)(=O)Nc1cccc(C)c1C)OCC(=O)N2	i	?	i	i	i	i	nt
COc1ccc(C(=O)N/N=C/c2ccc(N3CCOCC3)o2)cc1OC	i	2.5µM	i	i	i	i	i
COc1ccc(C(=O)N/N=C/c2ccc(N3CCOCC3)s2)cc1OC	nt	nt	i	i	i	i	nt
COCc1c(C(=O)N2CCN(C3CCCC3)CC2)cnn1-c1ncc2c(n1)-c1ccccc1CCC2	nt	nt	i	nt	nt	nt	nt
O=C(NCc1ccc2c(c1)OCO2)c1ccc(NS(=O)(=O)c2ccc3c(c2)OCCO3)cc1	i	4.5µM	i	i	i	i	i
O=C(NCc1ccc2c(c1)OCO2)c1ccc(S(=O)(=O)N2CCCCC2)cc1	i	i	nt	i	i	?	nt
CC(C)c1ccc(S(=O)(=O)c2cc3cc(Br)ccc3oc2=O)cc1	i	0.56µM	i	i	i	?	i
COc1ccc(Cn2ncc3c4sc(C)cc4n(C)c3c2=O)cc1F	nt	nt	nt	nt	i	nt	i
Cc1cc2c(s1)c1cnn(Cc3ccc(C(C)C)cc3)c(=O)c1n2C	nt	nt	nt	nt	i	nt	i
COc1ccc(Cn2ncc3c4sc(C)cc4n(C)c3c2=O)cc1	nt	nt	nt	nt	i	nt	i
Cc1cc2c(s1)c1cnn(Cc3ccc(OC(F)F)cc3)c(=O)c1n2C	nt	nt	nt	nt	i	nt	nt
Cc1cc2c(s1)c1cnn(Cc3ccc(C)c(F)c3)c(=O)c1n2C	nt	nt	nt	nt	i	nt	nt
Cc1cc2c(s1)c1cnn(Cc3ccc(C(F)(F)F)cc3)c(=O)c1n2C	nt	nt	nt	nt	i	nt	i
Cc1cccc(CNC(=O)c2cnn(-c3nccc(-c4cc(C)sc4C)n3)c2C)n1	nt	nt	i	nt	nt	nt	nt
O=C(Nc1cc(C(=O)NC2CCOCC2)c2c(c1)ncn2C1CCCC1)c1ccccc1	nt	nt	i	nt	nt	nt	nt
COc1ccc(CN2CCCC(Cn3cc(C(=O)N4CCCC4)nn3)C2)c(O)c1 (configuration not stated)	nt	nt	i	nt	nt	nt	nt
Cc1cc2c(s1)c1cnn(Cc3cc(C(F)(F)F)cc(Cl)c3F)c(=O)c1n2C	nt	nt	nt	nt	i	nt	i
Cc1cc2c(s1)c1cnn(Cc3cccc(Cl)c3F)c(=O)c1n2C	nt	nt	nt	nt	i	nt	nt
Cc1cnc(-n2ncc(C(=O)N[C@H]3CCCCNC3=O)c2C2CC2)nc1-c1cccs1	nt	nt	i	nt	nt	nt	nt
Cn1c2ccsc2c2ncn(Cc3ccccc3F)c(=O)c21	nt	nt	i	i	i	?	?
Cn1c2ccccc2c2ncn(Cc3ccc(F)cc3)c(=O)c21	i	i	i	i	i	i	nt
COc1cccc(-c2nn(C)c3sc(C(=O)NCc4ccc(C)o4)cc23)c1	i	2.5µM	i	i	?	?	?
COCC(=O)Nc1cc(C(=O)N2CCc3c(Cl)cccc3C2)c2c(c1)nc(-c1ccncc1)n2C	nt	nt	i	nt	nt	nt	nt
SMILES	miR-21 reporter	PKM2 activator	PINK1 modulator	B2AR arrestin	Pin1 inhibitor	Chronic BCR inh	HeLa viability
O=C(O)c1cc(-c2ccco2)nn1-c1cccc(Cl)c1	i	25µM	i	i	i	i	i
O=C(O)c1cc(-c2cccs2)nn1-c1cccc(Cl)c1	i	nt	i	i	i	i	nt
C/C=C\C=C/C(=O)Nc1cccc(C2=NOC3(C2)C[C@@H](C(N)=O)N(C(=O)/C=C/C=C\C)C3)c1 (some centres not stated)	i	1.4µM	i	i	i	i	i
C/C=C\C=C/C(=O)Nc1cccc(C2=NOC3(C2)C[C@@H](C(N)=O)N(C(=O)/C=C/CC)C3)c1 (some centres not stated)	i	?	i	i	?	?	nt
CCc1nnc(NC(=O)CSc2nnc3c4ccccc4n(C)c3n2)s1	i	1.4µM	i	i	i	i	i
CCCc1nnc(NC(=O)CSc2nnc3c4ccccc4n(CC)c3n2)s1	i	nt	i	nt	i	nt	nt
COc1ccc2c(c1)OC(C)CN(CCC(=O)NCC1OCCc3ccccc31)C2 (configuration not stated)	nt	nt	i	nt	nt	nt	nt
O=c1[nH]c(CN2CCN(c3ccc(O)cc3)CC2)nc2scc(-c3ccc(Cl)cc3)c12	i	2.8µM	i	i	i	?	i
O=c1[nH]c(CN2CCN(c3ccccc3O)CC2)nc2scc(-c3ccccc3Cl)c12	i	i	i	i	?	?	nt
COc1cc(C)c(CN2CCC3(CCC(CNC(=O)c4ccnn4C)O3)CC2)cc1C (configuration not stated)	nt	nt	i	nt	nt	nt	nt
CNC(=O)[C@@H]1C[C@H](Sc2nc3ccccc3[nH]2)CN1Cc1ccccc1C(F)(F)F	nt	nt	i	nt	nt	nt	nt
Oc1ccc(Nc2nc(-c3ccc4ccccc4c3)cs2)cc1	i	i	nt	i	nt	?	nt
Oc1ccc(-c2nc(-c3ccc(O)c(O)c3)cs2)cc1	i	3.2µM	i	i	i	?	i
COc1ccc(S(=O)(=O)N2CCN(S(=O)(=O)c3c(F)cccc3F)CC2)cc1	nt	nt	nt	i	i	i	i
CC(C)(O)C#Cc1ccc(CN2CCc3nnc(CCNC(=O)c4ccco4)n3CC2)cc1	nt	nt	i	nt	nt	nt	nt
CNc1c([N+](=O)[O-])cnn1-c1ccc(Cl)cc1	i	7.9µM	i	i	i	i	i
O=c1c2ccc(Cl)cc2[nH]c(=S)n1Cc1cccnc1	i	3.2µM	i	i	i	i	i
O=C(CSc1ccccc1)N1CCN(S(=O)(=O)c2ccccc2F)CC1	i	3.2µM	i	i	i	i	i
Cc1cccc(N2CCN(C(=O)c3c(C)nn(Cc4ccccc4Cl)c3C)CC2)c1C	i	3.5µM	i	i	i	?	?
O=C(C1CCC1)N1CCc2cc(S(=O)(=O)Nc3ccc4c(c3)OCO4)ccc21	i	2.8µM	i	i	i	i	i
CCOc1ccc(NS(=O)(=O)c2ccc3c(c2)CCN3C(=O)C2CCC2)cc1	i	i	i	i	i	?	nt
Cc1ccc(CN2CCOc3ccc(CN4CCC(O)(c5cccnc5)CC4)cc3C2)cc1C	nt	nt	i	nt	nt	nt	nt
Cc1nn(C)cc1CN1CCOc2ccc(C(C)(O)COc3ccccc3)cc2C1 (configuration not stated)	nt	nt	i	nt	nt	nt	nt
COc1cc(C(=O)N(Cc2cc3ccc(C)cc3nc2N(C)C)C2CC2)cc(OC)c1OC	nt	nt	i	nt	nt	nt	nt
O=[N+]([O-])c1ccc(NCCCNS(=O)(=O)c2ccccc2)c(Cl)c1	i	7.9µM	i	i	i	i	i
O=C(NCc1ccncc1)c1cnn(-c2nccc(-c3cccs3)n2)c1C1CC1	nt	nt	i	nt	nt	nt	nt
CCCCCn1ncc2c3sc(C)cc3n(C)c2c1=O	nt	nt	nt	nt	i	nt	i
Cc1cc2c(s1)c1cnn(Cc3c(F)cccc3F)c(=O)c1n2C	nt	nt	nt	nt	i	nt	i
Cc1cc2c(s1)c1cnn(Cc3c(F)ccc(F)c3F)c(=O)c1n2C	nt	nt	nt	nt	i	nt	nt
